# Read-outs that look alike come from different tables or passages of the source.
# By UniProt entry, the sequences of proteins in these tests, tags left out. Residues count along the entry.
# UniProt P04757, 26-499: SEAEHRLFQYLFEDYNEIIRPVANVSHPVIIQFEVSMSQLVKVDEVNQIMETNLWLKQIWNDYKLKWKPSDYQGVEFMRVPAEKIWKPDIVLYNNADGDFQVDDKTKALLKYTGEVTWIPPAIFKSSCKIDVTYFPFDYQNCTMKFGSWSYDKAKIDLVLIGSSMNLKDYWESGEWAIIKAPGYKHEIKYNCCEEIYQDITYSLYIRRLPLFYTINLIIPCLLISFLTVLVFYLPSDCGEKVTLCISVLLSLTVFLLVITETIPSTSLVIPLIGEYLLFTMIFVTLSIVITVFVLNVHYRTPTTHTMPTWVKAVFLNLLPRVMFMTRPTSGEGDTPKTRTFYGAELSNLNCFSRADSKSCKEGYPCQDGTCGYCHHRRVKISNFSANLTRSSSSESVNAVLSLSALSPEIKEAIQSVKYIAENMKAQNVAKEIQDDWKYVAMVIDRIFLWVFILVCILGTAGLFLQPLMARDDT
# UniProt P12392, 21-495: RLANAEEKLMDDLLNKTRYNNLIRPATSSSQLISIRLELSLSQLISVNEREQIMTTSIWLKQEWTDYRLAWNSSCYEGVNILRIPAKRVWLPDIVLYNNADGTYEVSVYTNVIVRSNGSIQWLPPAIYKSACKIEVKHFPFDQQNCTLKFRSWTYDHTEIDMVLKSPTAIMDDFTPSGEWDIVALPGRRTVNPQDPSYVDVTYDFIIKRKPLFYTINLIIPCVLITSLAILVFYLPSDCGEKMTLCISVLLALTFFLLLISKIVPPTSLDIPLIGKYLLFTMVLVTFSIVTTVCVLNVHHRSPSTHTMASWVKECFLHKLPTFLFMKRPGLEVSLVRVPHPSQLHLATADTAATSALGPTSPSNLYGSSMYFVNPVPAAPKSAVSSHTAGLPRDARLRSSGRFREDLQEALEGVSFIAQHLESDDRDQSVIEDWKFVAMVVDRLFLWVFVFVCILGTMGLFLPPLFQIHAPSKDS
# UniProt P23979, 24-489: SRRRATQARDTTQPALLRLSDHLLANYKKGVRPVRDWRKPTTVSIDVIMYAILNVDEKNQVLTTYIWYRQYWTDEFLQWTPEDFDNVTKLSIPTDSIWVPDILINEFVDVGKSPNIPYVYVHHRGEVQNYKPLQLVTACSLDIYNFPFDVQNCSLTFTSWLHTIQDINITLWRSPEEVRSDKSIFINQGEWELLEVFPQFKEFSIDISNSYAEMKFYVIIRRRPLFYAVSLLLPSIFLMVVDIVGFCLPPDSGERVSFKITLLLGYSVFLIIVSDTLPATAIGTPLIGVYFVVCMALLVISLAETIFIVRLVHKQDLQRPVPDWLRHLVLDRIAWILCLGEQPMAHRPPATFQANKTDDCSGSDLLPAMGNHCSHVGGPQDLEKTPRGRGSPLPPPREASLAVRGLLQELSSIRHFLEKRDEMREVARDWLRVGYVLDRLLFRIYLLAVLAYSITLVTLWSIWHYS
# UniProt P09483, 31-630: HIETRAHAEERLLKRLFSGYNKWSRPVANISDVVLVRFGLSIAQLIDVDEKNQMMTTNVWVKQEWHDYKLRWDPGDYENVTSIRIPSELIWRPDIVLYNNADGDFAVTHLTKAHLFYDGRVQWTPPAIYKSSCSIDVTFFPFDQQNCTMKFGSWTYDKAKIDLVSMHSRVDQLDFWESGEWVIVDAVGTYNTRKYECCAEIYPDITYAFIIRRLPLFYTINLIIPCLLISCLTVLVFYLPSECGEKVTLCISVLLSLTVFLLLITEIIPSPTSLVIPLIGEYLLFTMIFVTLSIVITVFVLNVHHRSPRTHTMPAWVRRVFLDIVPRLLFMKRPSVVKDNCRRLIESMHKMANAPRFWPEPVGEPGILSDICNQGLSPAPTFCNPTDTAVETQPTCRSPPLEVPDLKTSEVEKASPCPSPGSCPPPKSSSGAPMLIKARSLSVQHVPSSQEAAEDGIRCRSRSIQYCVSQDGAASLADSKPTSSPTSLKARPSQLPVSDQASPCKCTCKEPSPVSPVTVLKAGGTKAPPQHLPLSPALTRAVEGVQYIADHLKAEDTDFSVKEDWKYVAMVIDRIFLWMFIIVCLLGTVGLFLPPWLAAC
# UniProt P12390, 25-500: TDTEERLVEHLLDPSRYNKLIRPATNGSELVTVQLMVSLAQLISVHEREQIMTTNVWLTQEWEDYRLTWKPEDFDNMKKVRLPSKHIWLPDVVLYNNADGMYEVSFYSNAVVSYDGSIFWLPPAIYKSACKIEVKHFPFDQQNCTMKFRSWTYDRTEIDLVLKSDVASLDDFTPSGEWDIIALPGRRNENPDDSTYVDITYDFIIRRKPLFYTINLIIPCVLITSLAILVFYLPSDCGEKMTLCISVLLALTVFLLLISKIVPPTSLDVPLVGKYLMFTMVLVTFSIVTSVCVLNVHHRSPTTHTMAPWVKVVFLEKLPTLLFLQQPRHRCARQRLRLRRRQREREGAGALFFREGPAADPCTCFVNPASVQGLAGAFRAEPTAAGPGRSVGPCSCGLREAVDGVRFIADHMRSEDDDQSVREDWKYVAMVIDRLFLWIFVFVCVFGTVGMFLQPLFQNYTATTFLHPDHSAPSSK
# Key:
# Type in all cases: cell-based
# α3β4 nACh receptors = molecular target: T1, α3β4 nACh receptors (Rattus norvegicus, UniProt P04757+P12392); test: whole-cell patch-clamp of transfected HEK293 cells, ganglionic α3β4 nACh receptors, 1 mM ACh
# T1 construct: expressed in transfected cells; host or cells: HEK293 (ATCC CRL1573), transient transfection
# Procedure: (§1) Human embryonic kidney 293 (HEK293) fibroblasts (ATCC CRL1573) were cultured in minimal essential medium supplemented with 10% fetal bovine serum and 2 mM glutamine (Life Technologies, Rockville, Md.). Cells were plated on poly-D-lysine-coated 35 mm nunc dishes, transfected by the LipofectaminePLUS method (Life Technologies), and examined functionally between 18-48 h post transfection. […] Whole-cell capacitance and series resistance were recorded and adequately compensated using the available circuitry of the amplifier. […] Rapid switching between inputs was achieved using a set of upstream solenoid valves (Lee Co., Westbrook, Conn.) under computer control; the solution exchange rate was ˜5 ms as measured from liquid junction currents.
# (§2) Transfected HEK293 cells expressing various receptor subunit cDNAs were examined by whole-cell patch-clamp recording with fast perfusion of agonist and drug solutions. […] In FIG. 1A, open bars depict the timing of ACh application; filled bars depict the timing of co-application of 20 μM IBO or 20 μM 18MC; and inhibition was measured relative to control at the end of the drug application (indicated by arrows). […]
# 5-HT3A receptors = molecular target: T2, 5-HT3A receptors (Mus musculus, UniProt P23979); test: whole-cell patch-clamp of transfected HEK293 cells, 5-HT3A, 100 μM serotonin; details: read-out: IC50 at 5-HT3 receptors; approximate, from 20 μM data
# T2 construct: expressed in transfected cells; host or cells: HEK293 (ATCC CRL1573), transient transfection
# Procedure: as §1
# Transfected HEK293 cells expressing 5-HT3A receptors were voltage-clamped to −70 mV and stimulated with 100 μM serotonin at 30 s intervals. […] This is shown in FIG. 4, where open bars depict the timing of agonist application, filled bars depict the timing of co-application of 20 μM IBO or 20 μM 18MC, and inhibition was measured relative to control at the end of the drug application (indicated by arrows).
# nACh receptors = molecular target: T3, nACh receptors (Rattus norvegicus, UniProt P09483+P12390); test: whole-cell patch-clamp of transfected HEK293 cells, neuronal nACh receptors, 300 μM ACh; details: read-out: IC50 suggested by the inhibition data, estimated from 5 and 20 μM data
# T3 construct: expressed in transfected cells; host or cells: HEK293 (ATCC CRL1573), transient transfection
# Procedure: as §1, §2
substance,measurement,setting,value
ibogaine,IC50,"α3β4 nACh receptors; read-out: IC50, inhibition of ACh-evoked whole-cell currents, -70 mV, HEK293, FIG. 1B, 3-14 cells per point",220 nM
same,IC50,"α3β4 nACh receptors; read-out: IC50, inhibition of ACh-evoked whole-cell currents, -70 mV, HEK293, FIG. 1B, 3-14 cells per point, listed as IBO",750 nM
same,IC50,5-HT3A receptors,~20000 nM
same,IC50,nACh receptors,1000 to 5000 nM
